Reference: US10167293B2, “[8-(phenylsulfonyl)-3,8-diazabicyclo[3.2.1]oct-3-yl](1H-1,2,3-triazol-4-yl)methanones” (BAYER PHARMA AKTIENGESELLSCHAFT, priority 2016, dated 2019)

Sequences of proteins named here, by UniProt entry; tags and fusion partners are left off.
UniProt P42330, whole entry: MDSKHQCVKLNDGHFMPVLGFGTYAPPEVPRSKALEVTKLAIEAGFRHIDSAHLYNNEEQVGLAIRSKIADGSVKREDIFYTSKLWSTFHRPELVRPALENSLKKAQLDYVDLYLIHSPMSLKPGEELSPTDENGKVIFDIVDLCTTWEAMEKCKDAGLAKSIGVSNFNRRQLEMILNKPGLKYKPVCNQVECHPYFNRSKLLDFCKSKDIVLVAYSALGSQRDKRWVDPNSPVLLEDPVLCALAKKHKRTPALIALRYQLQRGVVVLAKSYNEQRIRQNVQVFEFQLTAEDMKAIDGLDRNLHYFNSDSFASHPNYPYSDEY

Molecular target: recombinant human AKR1C3 (Homo sapiens (Human), UniProt P42330)
Test: AKR1C3-inhibitory activity assay (Coumberone to Coumberol fluorescence)
Settings: read-out: IC50 human AKR1C3; recombinant human AKR1C3, 15 min pre-incubation, 10 μM NADPH, 0.3 μM Coumberone
Procedure: The AKR1C3-inhibitory activity of the substances of the present invention was measured in the AKR1C3 assay described in the paragraphs below.
Essentially, the enzyme activity is measured by quantification of the generation of Coumberol from Coumberone (Halim et al. J. AM. CHEM. SOC. 2008, 130:14123-14128 and Yee et al. Proc. Natl. Acad. Sci. USA 2006, 103:13304-13309). In this test, the increase of the highly fluorescent Coumberol by NADPH—(nicotinamide adenine dinucleotide phosphate)-dependent reduction of the non-fluorescent Coumberone by AKR1C3 was determined.
The enzyme used was recombinant human AKR1C3 (Aldo-keto reductase family 1 member C3; GenBank Accession No. NM_003739). […]
For the assay, 50 nl of a 100-fold concentrated solution of the test substance in DMSO were pipetted into a black low-volume 384-well microtiter plate (Greiner Bio-One, Frickenhausen, Germany), 2.5 μl of a solution of AKR1C3 in assay buffer [50 mM potassium phosphate buffer pH 7, 1 mM DTT, 0.0022% (w/v) Pluronic F-127, 0.01% BSA (w/v) and protease inhibitor cocktail (Complete, EDTA-free Protease Inhibitor Cocktail from Roche)] were added and the mixture was incubated for 15 min to allow pre-binding of the substances to the enzyme prior to the enzyme reaction. […] The intensity of the fluorescence was used as a measure of the amount of Coumberole formed and thus of the enzyme activity of AKR1C3. […]

IC50: 1810 nM
Compound: Cc1ccc(S(=O)(=O)N2CCN(C(=O)c3ccno3)CC2)cc1
